Data reported in patent publication US5534525A.

Chains of the proteins cited; added tags and fusions are not shown.
UniProt P21452, whole entry: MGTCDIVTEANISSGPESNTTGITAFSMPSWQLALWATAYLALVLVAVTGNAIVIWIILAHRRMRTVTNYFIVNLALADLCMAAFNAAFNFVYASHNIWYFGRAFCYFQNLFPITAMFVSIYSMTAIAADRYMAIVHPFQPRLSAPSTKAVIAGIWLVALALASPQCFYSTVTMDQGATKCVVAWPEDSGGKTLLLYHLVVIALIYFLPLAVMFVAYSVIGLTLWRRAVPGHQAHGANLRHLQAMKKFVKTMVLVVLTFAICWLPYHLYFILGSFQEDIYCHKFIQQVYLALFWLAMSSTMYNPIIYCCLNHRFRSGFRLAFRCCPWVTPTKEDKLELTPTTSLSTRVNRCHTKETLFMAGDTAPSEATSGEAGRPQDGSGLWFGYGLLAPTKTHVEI

Molecular target: human NK2 receptor (Homo sapiens, UniProt P21452)
Test: Neurokinin A (NKA) Receptor-binding Assay (Test A)
Conditions: read-out: IC50 versus ^3 H-NKA binding to MELM, human NK2 receptor expressed in Mouse Erythroleukemia (MEL) cells, initial use of this assay
Description: Neurokinin A (NKA) Receptor-binding Assay (Test A)
It will be appreciated that the implications of a Compound's activity in Test A or Test B is not limited to asthma, but rather, that the test provides evidence of general antagonism of NKA. […] In Test B, a pKB of 5 or greater was typically measured for a Compound of the invention. It should be noted that there may not always be a direct correlation between the activities of Compounds measured as Ki values in Test A and the values measured in other assays, such as the pKB measured in Test B.

CSCC[C@@H]1NC(=O)[C@H](CC(C)C)NC(=O)CNC(=O)[C@H](Cc2ccccc2)NC(=O)[C@H](Cc2c[nH]c3ccccc23)NC(=O)[C@H](CCC(N)=O)NC1=O
IC50: 30 nM
